Bounds are passed on as bounds.

What is called LD50 is the dose expected to kill half of the subjects tested.

The data set can be described thus: in vivo.

With `CO/N=C(\C(=O)N[C@@H]1C(=O)N2C(C(=O)O)=C(CSc3nc(=O)c(=O)[nH]n3C)CS[C@H]12)c1csc(N)n1` [Product A], the median lethal dose (LD50) by setting is: (iv) 250 to 500 mg/kg; (po) more than 5000 mg/kg; (sc) more than 4000 mg/kg.

(Values after patent US4327210A, “Thiazolylacelamide cephalosporins” (Hoffmann-La Roche Inc., priority 1978, dated 1982).)
